In patent publication US6583125B2 (priority 1992, dated 2003):

Key:
[1] = human, in vivo; cited from earlier work
[2] = system: rats; conditions: rat, in vivo

CO[C@@]12[C@H](COC(N)=O)C3=C(C(=O)C(C)=C(N)C3=O)N1C[C@@H]1N[C@@H]12 [mitomycin-c]
Frequency of Phlebitis [1]: Frequent | Lesion Diameter [2]: 0.95 cm | lesion size [2]: 1.45 cm
